Values quoted from earlier work as cited in US9937154B2, “Use of telmisartan to prevent and treat graft versus host disease and other alloimmune and autoimmune diseases” (Hackensack University Medical Center, priority 2015, dated 2018).

System: transplant patients (IT GVHD)
Details: at 1 year, vs. historical controls; not statistically significant; cited from earlier work

maraviroc
increase in cancer relapse: ~20%
